Test results published in ChEMBL document CHEMBL1148395, “Synthesis, biological properties, and molecular modeling investigations of novel 3,4-diarylpyrazolines as potent and selective CB(1) cannabinoid receptor antagonists” (J Med Chem, 2004).

The chains behind the UniProt entries cited, without tags or fusion partners.
UniProt P20272, whole entry: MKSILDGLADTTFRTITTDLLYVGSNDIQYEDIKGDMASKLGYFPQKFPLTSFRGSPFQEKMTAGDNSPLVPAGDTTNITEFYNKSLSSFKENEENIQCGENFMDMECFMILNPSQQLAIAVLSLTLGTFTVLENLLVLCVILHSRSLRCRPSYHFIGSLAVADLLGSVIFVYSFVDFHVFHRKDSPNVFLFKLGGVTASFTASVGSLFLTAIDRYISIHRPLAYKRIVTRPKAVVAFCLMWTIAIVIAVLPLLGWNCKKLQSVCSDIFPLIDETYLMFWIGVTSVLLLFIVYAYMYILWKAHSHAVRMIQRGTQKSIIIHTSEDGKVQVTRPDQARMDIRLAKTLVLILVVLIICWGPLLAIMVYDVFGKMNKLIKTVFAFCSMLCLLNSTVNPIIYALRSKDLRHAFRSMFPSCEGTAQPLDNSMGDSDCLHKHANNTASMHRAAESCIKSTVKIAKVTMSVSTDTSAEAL

Target: Cannabinoid receptor 1 (Rattus norvegicus) (UniProt P20272)
Assay: In vivo effective dose to antagonise cannabinoid receptor 1 agonist (CP-55940) induced hypotension in rat upon peroral administration
Format: functional, organism-based

ED50: 3.2 mg/kg
Compound: Cc1c(C(=O)NN2CCCCC2)nn(-c2ccc(Cl)cc2Cl)c1-c1ccc(Cl)cc1
